Among the data in ChEMBL document CHEMBL4616721, “Nitrogen-Walk Approach to Explore Bioisosteric Replacements in a Series of Potent A2B Adenosine Receptor Antagonists” (J Med Chem, 2020) are inhibition values, retold here.

Amino acid sequences for entries named in this document (tags omitted).
UniProt P0DMS8, whole entry: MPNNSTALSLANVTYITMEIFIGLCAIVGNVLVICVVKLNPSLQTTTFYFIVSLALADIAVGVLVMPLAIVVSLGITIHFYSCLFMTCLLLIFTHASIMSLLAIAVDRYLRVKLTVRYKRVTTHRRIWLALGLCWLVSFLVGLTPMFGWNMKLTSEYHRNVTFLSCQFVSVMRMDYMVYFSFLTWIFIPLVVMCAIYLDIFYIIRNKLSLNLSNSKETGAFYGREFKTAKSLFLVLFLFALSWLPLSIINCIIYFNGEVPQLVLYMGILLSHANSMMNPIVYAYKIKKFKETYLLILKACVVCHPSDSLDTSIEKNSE
UniProt P30542, whole entry: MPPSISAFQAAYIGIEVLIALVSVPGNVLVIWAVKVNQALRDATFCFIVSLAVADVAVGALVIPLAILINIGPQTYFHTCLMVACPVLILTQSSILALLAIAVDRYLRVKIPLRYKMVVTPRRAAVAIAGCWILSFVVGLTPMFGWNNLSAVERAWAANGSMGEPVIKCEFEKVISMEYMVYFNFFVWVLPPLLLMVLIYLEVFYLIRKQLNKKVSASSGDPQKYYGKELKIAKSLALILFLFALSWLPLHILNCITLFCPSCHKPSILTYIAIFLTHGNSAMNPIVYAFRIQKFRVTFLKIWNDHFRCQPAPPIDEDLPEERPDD

In one assay the target is Adenosine receptor A2a (Homo sapiens, UniProt P29274). Description: Displacement [3H]ZM241385 from adenosine A2A receptor in human HeLa cell membranes at 1 uM incubated for 30 mins by scintillation counting method relative to control.
The next assay deals with Adenosine receptor A3 (Homo sapiens, UniProt P0DMS8). Kind of assay: Displacement [3H]NECA from adenosine A3 receptor in human HeLa cell membranes at 1 uM incubated for 180 mins by scintillation counting method relative to control.
The target in another assay is Adenosine receptor A1 (Homo sapiens, UniProt P30542). Description: Displacement [3H]DPCPX from human adenosine A1 receptor expressed in CHO cell membranes at 1 uM incubated for 60 mins by scintillation counting method relative to control.

Consider `CCOC(=O)C1=C(C)Nc2nc3ccccc3n2C1c1cocn1` (racemic), for which the inhibition worked out at 11% on Adenosine receptor A2a, 7% on Adenosine receptor A3 and 5% on Adenosine receptor A1.
For the compound `CCOC(=O)C1=C(C)Nc2nc3ccccc3n2[C@@H]1c1cocn1`, the inhibition on Adenosine receptor A2a was 20%; at Adenosine receptor A3, 18%; at Adenosine receptor A1, 1%.
In the case of `CCOC(=O)C1=C(C)Nc2nc3ccccc3n2[C@H]1c1cocn1`, the inhibition amounted to 4% at Adenosine receptor A2a, 6% on Adenosine receptor A3 and 3% at Adenosine receptor A1.

The term inhibition denotes the relative decrease from the control value, in per cent. A high value points to a strong effect.
